The experiment concerns the target C-C chemokine receptor type 2 (Homo sapiens, UniProt P41597). The experiment in a line: Displacement of [125I]-MCP1 from CCR2 in human THP1 cells after 2 hrs by microplate scintillation and luminescence counting. Type of experiment: cell-based, THP-1. Put shortly:
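They were incubated with 0.5 nM ¹²⁵I-MCP-1 and varying test compound concentrations for 2 h at 30 °C. Cold MCP-1 defined nonspecific binding. Buffer-only blanks were subtracted and values compared with vehicle.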
(In a radioligand displacement assay an active substance lowers the binding of a labelled ligand.)

By UniProt entry, the sequences of proteins in these tests, tags left out. Where a name states a change or a piece, a line headed by the entry shows the natural chain unless it says otherwise.
UniProt P41597: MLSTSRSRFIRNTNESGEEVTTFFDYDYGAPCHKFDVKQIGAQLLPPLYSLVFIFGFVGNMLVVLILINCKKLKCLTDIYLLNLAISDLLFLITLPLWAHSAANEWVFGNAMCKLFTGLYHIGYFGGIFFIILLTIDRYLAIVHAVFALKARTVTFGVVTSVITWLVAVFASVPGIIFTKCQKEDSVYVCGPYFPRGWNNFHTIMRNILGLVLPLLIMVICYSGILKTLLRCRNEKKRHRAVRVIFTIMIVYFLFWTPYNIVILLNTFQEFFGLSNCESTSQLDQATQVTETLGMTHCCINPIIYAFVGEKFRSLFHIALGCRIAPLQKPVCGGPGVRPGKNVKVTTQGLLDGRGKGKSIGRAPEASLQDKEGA

The structures appear in SMILES notation.

With `O=C(CNC(=O)c1cccc(C(F)(F)F)c1)NC1CN([C@H]2CC[C@H](c3cnccn3)CC2)C1`, the concentration for half-maximal inhibition (IC50) (usually the concentration that gives 50% inhibition) amounted to 44 nM. Under `Nc1cccnc1[C@H]1CC[C@H](N2CC(NC(=O)CNC(=O)c3cccc(C(F)(F)F)c3)C2)CC1` stands 43 nM; under `COC(=O)c1ccc([C@H]2CC[C@H](N3CC(NC(=O)CNC(=O)c4cccc(C(F)(F)F)c4)C3)CC2)cc1`, 80 nM.

The compound `CN(C)c1ncc([C@H]2CC[C@H](N3CC(NC(=O)CNC(=O)c4cccc(C(F)(F)F)c4)C3)CC2)cn1` yielded an IC50 of 31 nM. The compound `CN(C)c1cccc([C@]2(O)CC[C@@H](N3CC(NC(=O)CNC(=O)c4cccc(C(F)(F)F)c4)C3)CC2)c1` registered an IC50 of 15 nM.

(Values after ChEMBL document CHEMBL1828623, “Overcoming hERG activity in the discovery of a series of 4-azetidinyl-1-aryl-cyclohexanes as CCR2 antagonists” (Bioorg Med Chem Lett, 2011).)
